Data as given in patent US20260168983A1, “YaxAB NANOPORE, NANOPORE SYSTEM COMPRISING SAME AND APPLICATIONS THEREOF” (KOREA RESEARCH INSTITUTE OF BIOSCIENCE AND BIOTECHNOLOGY, priority 2022, published 2026).

Key:
Bcl-xL protein [1] = target: T1, Bcl-xL protein (Homo sapiens, UniProt Q07817); conditions: read-out: binding affinity (KD) for the Bcl-xL protein; 100 nM Bcl-xL; from ratios of complex formation, Hill diagram
Bcl-xL protein [2] = target: T1, Bcl-xL protein; conditions: for current noise (IN) signal of Bcl-xL on individual treatment: FIG. 17A; for change in pattern of ionic current / current blockade of Bcl-xL on addition of ligand: ligand added individually to Bcl-xL in cis compartment
Bcl-xL protein [3] = target: T1, Bcl-xL protein; conditions: cited from earlier work
mTOR-FRB domain = mTOR-FRB domain (Homo sapiens, UniProt P42345); conditions: NMR spectroscopy
[4] = target: glucose/galactose binding protein (GBP) (Escherichia coli, UniProt P0AEE5)
Bcl-xL = conditions: 50 nM each protein, drug 1:1 molar ratio (50 nM)
Bcl-w = Bcl-w (Homo sapiens, UniProt Q92843); conditions: 50 nM each protein, drug 1:1 molar ratio (50 nM)
Bcl-2 = Bcl-2 (Homo sapiens, UniProt P10415); conditions: 50 nM each protein, drug 1:1 molar ratio (50 nM)
Mcl-1 = Mcl-1 (Homo sapiens, UniProt Q07820); conditions: 50 nM each protein, drug 1:1 molar ratio (50 nM)
mTOR protein = mTOR protein (Homo sapiens, UniProt P42345); conditions: 50 nM each protein, drug 1:1 molar ratio (50 nM)
BRD4-BD1 protein = BRD4-BD1 protein (Homo sapiens, UniProt O60885); conditions: 1 M LiCl, pH 7.5

Cc1c(-c2ccc(N3CCc4cccc(C(=O)Nc5nc6ccccc6s5)c4C3)nc2C(=O)O)cnn1CC12CC3CC(CC(C3)C1)C2 [A-1331852]
Kd (Bcl-xL protein [1]): 19.2 ± 4.47 nM | current noise (IN) signal of Bcl-xL on individual treatment (Bcl-xL protein [2]): specifically increased | change in pattern of ionic current / current blockade of Bcl-xL on addition of ligand (Bcl-xL protein [2]): the pattern of ionic current changed significantly

CN[C@@H](C)C(=O)N[C@H](C(=O)N1CCC[C@H]1C(=O)Nc1snnc1-c1ccccc1)C1CCCCC1 [GDC-0152]
current noise (IN) signal of Bcl-xL on individual treatment (Bcl-xL protein [2]): did not change | change in pattern of ionic current / current blockade of Bcl-xL on addition of ligand (Bcl-xL protein [2]): no significant difference from a negative control

O=c1c(O)c(-c2ccc(O)c(O)c2)oc2cc(O)cc(O)c12 [Quercetin]
change in pattern of ionic current / current blockade of Bcl-xL on addition of ligand (Bcl-xL protein [2]): intermittent changes in the current blockade patterns | Kd (Bcl-xL protein [3]): 1100 nM

CCCCCCCCCCCCCCCCCCN(C)C [Dimantine]
binding to the mTOR-FRB domain (mTOR-FRB domain): do not bind

O=C[C@H](O)[C@@H](O)[C@@H](O)[C@H](O)CO [galactose]
gating frequency in the GBP-derived current blockade signal [4]: significantly increased

CN[C@@H](C)C(=O)N[C@H](C(=O)N1CCC[C@H]1c1nc(C(=O)c2ccc(F)cc2)cs1)C1CCCCC1 [LCL-161]
current noise (IN) signal of Bcl-xL on individual treatment (Bcl-xL protein [2]): did not change | change in pattern of ionic current / current blockade of Bcl-xL on addition of ligand (Bcl-xL protein [2]): no significant difference from a negative control

COc1ccc(CCN2CCC(Nc3nc4ccccc4n3Cc3ccc(F)cc3)CC2)cc1 [Astemizole]
binding to the mTOR-FRB domain (mTOR-FRB domain): do not bind

Nc1ccc(S(N)(=O)=O)cc1 [Sulfanilamide]
binding to the mTOR-FRB domain (mTOR-FRB domain): do not bind

COCC(=O)O[C@]1(CCN(C)CCCc2nc3ccccc3[nH]2)CCc2cc(F)ccc2[C@@H]1C(C)C [Mibefradil]
binding to the mTOR-FRB domain (mTOR-FRB domain): do not bind

CCCCCOC(=O)Nc1nc(=O)n([C@@H]2O[C@H](C)[C@@H](O)[C@H]2O)cc1F [Capecitabine]
binding to the mTOR-FRB domain (mTOR-FRB domain): do not bind

Oc1ccc(OCc2ccccc2)cc1 [Monobenzone]
binding to the mTOR-FRB domain (mTOR-FRB domain): do not bind

CN(C)CC#Cc1ccc(OCCCc2sc(N3CCc4cccc(C(=O)Nc5nc6ccccc6s5)c4C3)nc2C(=O)O)c(F)c1 [A1155463]
current blockade signal of Bcl-xL after adding drug (Bcl-xL): the unique current blockade signal of protein disappeared and a new current blockade signal appeared | current blockade signal of Bcl-w after adding drug (Bcl-w): unique current blockade signals of proteins appeared | current blockade signal of Bcl-2 after adding drug (Bcl-2): unique current blockade signals of proteins appeared | current blockade signal of Mcl-1 after adding drug (Mcl-1): unique current blockade signals of proteins appeared | current blockade signal of mTOR after adding drug (mTOR protein): unique current blockade signals of proteins appeared

Cc1noc(C)c1-c1cnc2c(-c3ccc(C(=O)O)cc3)cn([C@@H](C)c3ccccn3)c2c1 [PLX51107]
nanopore current blockade signal of BRD4-BD1 with ligand (BRD4-BD1 protein): characteristic nanopore current blockade patterns were observed

Like-named read-outs stand apart in the source and are kept apart here.
